Literature values in PMC3082517, “Neurosteroid Dehydroepiandrosterone Interacts with Nerve Growth Factor (NGF) Receptors, Preventing Neuronal Apoptosis” (PLoS Biology, 2011).

Chains of the proteins cited; added tags and fusions are not shown. Residues count along the entry.
UniProt P04629, 33-423: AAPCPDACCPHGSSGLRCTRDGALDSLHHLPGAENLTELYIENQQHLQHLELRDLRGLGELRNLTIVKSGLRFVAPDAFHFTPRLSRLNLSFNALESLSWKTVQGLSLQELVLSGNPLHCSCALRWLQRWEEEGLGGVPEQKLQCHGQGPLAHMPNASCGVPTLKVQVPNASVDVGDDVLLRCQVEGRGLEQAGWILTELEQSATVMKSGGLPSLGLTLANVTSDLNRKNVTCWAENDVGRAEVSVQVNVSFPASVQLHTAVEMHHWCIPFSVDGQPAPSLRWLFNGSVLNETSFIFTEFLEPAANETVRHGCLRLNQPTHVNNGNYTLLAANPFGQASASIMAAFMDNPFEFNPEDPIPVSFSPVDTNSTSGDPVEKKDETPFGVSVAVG
UniProt P01138, 122-241: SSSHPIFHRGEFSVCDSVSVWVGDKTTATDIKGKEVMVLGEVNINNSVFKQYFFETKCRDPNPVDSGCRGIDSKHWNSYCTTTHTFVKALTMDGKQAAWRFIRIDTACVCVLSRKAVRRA

Key:
androgen receptors (AR) = biological target: androgen receptors (AR); parameters: method as in PMID 14556282; conditions: read-out: KD of binding to androgen receptors; cited from earlier work
TrkA (Homo sapiens) = TrkA (Homo sapiens) (UniProt P04629); conditions: cited from earlier work

| Compound | Kd (androgen receptors (AR)) [nM] | Kd (TrkA (Homo sapiens)) [nM] |
| --- | --- | --- |
| C[C@]12CC[C@H](O)CC1=CC[C@@H]1[C@@H]2CC[C@]2(C)C(=O)CC[C@@H]12 [DHEA, dehydroepiandrosterone] | 2000 |  |
| NGF (from UniProt P01138) |  | 0.01 |
